Experiments:
[1] = target: T1, GABA-A receptor; alpha-1/beta-2/gamma-2 (Homo sapiens, UniProt P14867+P18507+P47870); assay: Agonist activity at human alpha1beta2gamma2L GABA A receptor expressed in Xenopus laevis oocytes assessed as increase in current response by two-electrode voltage clamp assay; format: functional, cell-based, Oocyte
T1 sequence (P14867 whole entry): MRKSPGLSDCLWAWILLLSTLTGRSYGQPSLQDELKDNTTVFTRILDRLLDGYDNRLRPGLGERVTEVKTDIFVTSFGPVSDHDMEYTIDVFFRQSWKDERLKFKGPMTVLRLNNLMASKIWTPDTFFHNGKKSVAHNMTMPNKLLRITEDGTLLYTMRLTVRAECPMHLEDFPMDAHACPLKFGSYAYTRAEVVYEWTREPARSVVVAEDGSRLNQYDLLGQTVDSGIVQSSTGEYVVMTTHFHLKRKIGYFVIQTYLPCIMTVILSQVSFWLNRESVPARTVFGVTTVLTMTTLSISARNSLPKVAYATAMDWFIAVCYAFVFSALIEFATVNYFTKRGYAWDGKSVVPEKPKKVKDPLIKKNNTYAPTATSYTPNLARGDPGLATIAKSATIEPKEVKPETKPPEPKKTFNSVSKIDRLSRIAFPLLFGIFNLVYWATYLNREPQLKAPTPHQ
T1 sequence (P47870 whole entry): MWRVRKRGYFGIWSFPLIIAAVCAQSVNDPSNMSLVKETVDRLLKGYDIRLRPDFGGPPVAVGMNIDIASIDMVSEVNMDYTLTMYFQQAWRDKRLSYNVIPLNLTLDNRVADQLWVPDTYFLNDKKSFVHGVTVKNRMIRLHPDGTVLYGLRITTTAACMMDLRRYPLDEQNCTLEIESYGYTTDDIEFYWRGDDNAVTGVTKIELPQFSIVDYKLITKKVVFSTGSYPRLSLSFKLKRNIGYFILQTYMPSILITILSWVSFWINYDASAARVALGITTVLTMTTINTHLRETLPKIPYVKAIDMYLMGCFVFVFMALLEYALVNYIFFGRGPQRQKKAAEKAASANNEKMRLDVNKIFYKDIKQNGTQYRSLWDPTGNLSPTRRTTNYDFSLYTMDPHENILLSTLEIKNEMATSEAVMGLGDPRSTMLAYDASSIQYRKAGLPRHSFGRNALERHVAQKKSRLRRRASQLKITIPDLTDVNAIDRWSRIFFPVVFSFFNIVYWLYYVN
T1 sequence (P18507 whole entry): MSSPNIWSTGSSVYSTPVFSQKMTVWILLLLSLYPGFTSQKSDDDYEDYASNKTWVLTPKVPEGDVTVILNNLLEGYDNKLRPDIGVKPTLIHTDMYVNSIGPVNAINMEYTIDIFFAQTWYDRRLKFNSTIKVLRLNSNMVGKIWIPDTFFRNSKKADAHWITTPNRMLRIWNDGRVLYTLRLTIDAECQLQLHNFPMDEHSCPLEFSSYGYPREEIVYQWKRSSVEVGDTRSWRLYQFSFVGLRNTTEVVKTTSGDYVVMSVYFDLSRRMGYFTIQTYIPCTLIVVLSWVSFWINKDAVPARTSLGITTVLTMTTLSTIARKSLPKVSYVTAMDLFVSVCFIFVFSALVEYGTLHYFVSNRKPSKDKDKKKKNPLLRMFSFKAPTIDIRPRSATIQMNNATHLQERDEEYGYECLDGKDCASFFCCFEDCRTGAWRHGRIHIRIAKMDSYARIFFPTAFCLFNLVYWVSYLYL

[2] = target: T1, GABA-A receptor; alpha-1/beta-2/gamma-2
[3] = target: T2, GABA-A receptor; alpha-1/beta-3/gamma-2 (Homo sapiens, UniProt P14867+P18507+P28472)
T2 sequence (P14867 whole entry): T1 sequence (P14867 whole entry)
T2 sequence (P18507 whole entry): T1 sequence (P18507 whole entry)
T2 sequence (P28472 whole entry): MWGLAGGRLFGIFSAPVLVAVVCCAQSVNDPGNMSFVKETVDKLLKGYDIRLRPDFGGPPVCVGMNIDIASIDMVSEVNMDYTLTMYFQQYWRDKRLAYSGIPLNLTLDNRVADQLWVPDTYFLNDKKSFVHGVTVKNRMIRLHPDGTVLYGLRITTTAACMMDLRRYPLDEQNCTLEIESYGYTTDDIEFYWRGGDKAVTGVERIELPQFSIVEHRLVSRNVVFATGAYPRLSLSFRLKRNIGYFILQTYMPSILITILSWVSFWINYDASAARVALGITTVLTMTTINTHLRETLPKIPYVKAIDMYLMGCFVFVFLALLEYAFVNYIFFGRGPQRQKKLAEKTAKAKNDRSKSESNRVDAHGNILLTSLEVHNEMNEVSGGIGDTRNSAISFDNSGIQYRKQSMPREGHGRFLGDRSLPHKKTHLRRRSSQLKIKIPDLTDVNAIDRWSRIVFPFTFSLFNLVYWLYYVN

[4] = target: T3, Gamma-aminobutyric acid receptor subunit alpha-1 (Homo sapiens, UniProt P14867); assay: Displacement of [3H]R-(-)-14 from human FLAG-tagged alpha1 GABA A receptor expressed in HEK293S cells; format: cell-based
T3 sequence (P14867 whole entry): T1 sequence (P14867 whole entry)

[5] = target: T4, Gamma-aminobutyric acid receptor subunit beta-3 (Homo sapiens, UniProt P28472); assay: biochemical
T4 sequence (P28472 whole entry): T2 sequence (P28472 whole entry)

SMILES	EC50 [1] [µM]	EC50 [2] [µM]	EC50 [3] [µM]	IC50 [4] [µM]	IC50 [5] [µM]
C=CC[C@@]1(c2cccc(C3(C(F)(F)F)N=N3)c2)C(=O)NC(=O)N(C)C1=O	13	2.1	1.2	–	–
C=CC[C@]1(c2cccc(C3(C(F)(F)F)N=N3)c2)C(=O)NC(=O)N(C)C1=O	61	–	14.1	120	170
